Experiment: Oral bioavailability / oral pharmacokinetics of oxycodone conjugates in rats

OC-β-alanine
AUC % (Oral Bioavailability) (reference = 100): 144% | Oral (% AUC) (relative to OXY = 100, n = 4 animals, analysis by LC-MS): 144 % AUC

Source: patent US20110040072A1, “MONO AND DI-SUBSTITUTED OXYCODONE COMPOUNDS AND COMPOSITIONS” (SHIRE LLC, priority 2006, published 2011)
